# The list shows a part of the results.
# Test system: A. baumannii ATCC 17978
# Experiment: relative growth (fraction of control); higher = less inhibition
# Details: 50 µM
row,Structure (SMILES),relative growth
1,CO[C@H]1CN(C)C(=O)c2cc(NS(=O)(=O)c3cn(C)cn3)ccc2OC[C@@H](C)N(CCC(F)(F)F)C[C@@H]1C,1.18
2,Cc1cc(C)cc(OCC2CNC(=O)O2)c1 (stereo unspecified),0.988
3,COc1ccc(C(=O)O)c(O)c1OC,1.21
4,O=C(O)[C@@H]1C(=CCO)O[C@H]2CC(=O)N12,1
5,CC[C@H]1OC(=O)C[C@@H](O)[C@H](C)[C@@H](O[C@@H]2O[C@H](C)[C@@H](O[C@H]3C[C@@](C)(O)[C@@H](O)[C@H](C)O3)[C@H](N(C)C)[C@H]2O)[C@@H](CC=O)C[C@@H](C)C(=O)/C=C/C(C)=C/[C@@H]1CO[C@@H]1O[C@H](C)[C@@H](O)[C@@H](OC)[C@H]1OC.O=C(O)[C@H](O)[C@@H](O)C(=O)O,0.878
6,O=C(O)[C@H](O)[C@@H](O)[C@H](O[C@@H]1O[C@H](CO)[C@H](O)[C@H](O)[C@H]1O)[C@H](O)CO,0.986
7,COCC#Cc1ccc2c(c1)O[C@H](CN(C)C(=O)CN(C)C)[C@@H](C)CN([C@H](C)CO)S2(=O)=O,1.13
8,CC(C)CC#Cc1ccc2c(c1)O[C@@H](CN(C)C(=O)C1CCOCC1)[C@H](C)CN([C@@H](C)CO)S2(=O)=O,0.826
9,O=C(N/N=C/[C@H](O)[C@@H](O)[C@@H](O)[C@H](O)CO)c1ccccn1,0.997
10,CO[C@@]1(NC(=O)CSCC#N)C(=O)N2C(C(=O)[O-])=C(CSc3nnnn3C)CSC21.[Na+] (stereo partly specified),0.939
11,CCOC(=O)CNC(=O)c1cc(C)on1,1.11
12,O=C(CN1CCOCC1)N[C@H]1CC[C@@H](CCNS(=O)(=O)c2ccccc2F)O[C@@H]1CO,1.04
13,c1cnc(N2CC[N+]3(CCCC3)CC2)nc1,1.18
14,O=c1c(-c2ccc(O)cc2)coc2cc(O)ccc12,1.03
15,Oc1ccnc(S)n1,0.994
16,CCCCCCCCCCCCCCCC(=O)O[C@@H]1[C@@H](O)[C@@H](O)C([C@H](NC(=O)[C@@H]2C[C@@H](CCC)CN2C)[C@H](C)Cl)O[C@@H]1SC.Cl (stereo partly specified),0.828
17,CC(=O)CCCCn1c(=O)c2c(ncn2C)n(C)c1=O,1.14
18,O=C(C[C@H]1C[C@H]2c3cc(NS(=O)(=O)c4ccc(F)cc4)ccc3O[C@H]2[C@H](CO)O1)NCc1ccccc1F,1.08
19,COc1cccc(C#Cc2ccc3c(c2)O[C@H](CN(C)C(=O)CN2CCOCC2)[C@H](C)CN([C@@H](C)CO)S3(=O)=O)c1,0.9
20,COc1ccc(C(=O)NCC#N)cc1,0.967
21,CN1C(=O)OC(C)(C)C1=O,0.554

row,Structure (SMILES),relative growth
1,COCC#Cc1ccc2c(c1)O[C@@H](CN(C)S(C)(=O)=O)[C@@H](C)CN([C@H](C)CO)S2(=O)=O,1
2,O=C(CO)C(O)C(O)C(O)CO (stereo unspecified),0.999
3,Cc1[nH]c(=O)n(C(C)(C)C)c(=O)c1C,0.992
4,Cc1occc1C(=O)NNC(=O)C1CC1,0.887
5,COc1ccc(S(=O)(=O)N[C@@H]2CC[C@H](CCNC(=O)CN3CCOCC3)O[C@@H]2CO)cc1,1.21
6,COC(=O)c1ccc2c(c1)no[n+]2[O-],1.03
7,O=C(C[C@H]1C[C@@H]2c3cc(NS(=O)(=O)c4ccc(F)cc4)ccc3O[C@@H]2[C@H](CO)O1)NCc1cccc(F)c1,1
8,O=C(NCCN1CCNCC1)c1ccccn1,1.01
9,NNC(=O)CNC(=O)[C@H]1COc2ccccc2O1,1.05
10,CN1CCN(C(=O)C[C@H]2CC[C@H]3[C@@H](COC[C@@H](O)CN3S(=O)(=O)c3cccc(Cl)c3)O2)CC1,0.97
11,Cc1ccc(S(=O)(=O)N[C@@H]2CC[C@H](CCNC(=O)CN3CCOCC3)O[C@H]2CO)cc1,1.13
12,C=c1cc(C)cc(C)c1=C1NN=C(N)S1,1.12
13,O=C(O)c1ccc(CNc2cn[nH]c(=O)n2)cc1,1.01
14,Cc1cccn2c(=O)c(-c3nnn[n-]3)cnc12.[K+],1.29
15,Cc1cc(C(=O)c2cc3cc(Cl)ccc3o2)ccc1Cl,1.08
16,CCNC(=O)CC[C@@H](N)C(=O)O,1.01
17,CN1C(=O)c2cc(NC(=O)c3cscn3)ccc2OC[C@@H]2O[C@@H](CC(=O)N3CCOCC3)CC[C@H]21,0.892
18,C[C@@H]1CN([C@@H](C)CO)S(=O)(=O)c2ccc(C#C[C@@H](C)O)cc2O[C@H]1CN(C)C,1.03
19,CCc1cc(=O)oc2cc(C)c3c(-c4ccccc4)coc3c12,1.39
20,O=C(Nc1cccnc1)c1nc2ncccn2n1,0.909
